Results as given in US20210070747A1, “2(1H)-QUINOLINONE DERIVATIVE” (priority 2017, published 2021).
Converted amounts (≈) assume the structure as drawn.

How the values were obtained:
[1] = system: N. gonorrhoeae ATCC 49226; assay: Test for evaluating antibacterial activity (N. gonorrhoeae), broth microdilution MIC; assay type: cell-based; details: Neisseria gonorrhoeae, ATCC49226, 24 h, read-out: MIC N. gonorrhoeae ATCC 49226
E. Coli ATCC 25922 = assay: Test for evaluating antibacterial activity (E. coli), broth microdilution MIC; assay type: cell-based; details: Escherichia coli, ATCC25922, 18 h, read-out: MIC E. Coli ATCC 25922

| SMILES | MIC [1] | MIC (E. Coli ATCC 25922) |
| --- | --- | --- |
| CNc1cc(F)cc2cc(C(=O)Nc3ccc(CO)cc3CN(CCO)C3CCCCC3)c(=O)[nH]c12 [Example 124, N-[2-{[cyclohexyl(2-hydroxyethyl)amino]methyl}-4-(hydroxymethyl)phenyl]-6-fluoro-8-(methylamino)-2-oxo-1,2-dihydroquinoline-3-carboxamide] | 0.12 µg/mL (≈ 0.242 µM) |  |
| CCCCCN(CCCCC)Cc1cc(C(=O)O)ccc1NC(=O)c1cc2cc(F)cc(NC)c2[nH]c1=O [Example 101, 3-[(dipentylamino)methyl]-4-{[6-fluoro-8-(methylamino)-2-oxo-1,2-dihydroquinoline-3-carbonyl]amino} benzoic acid] | 0.03 µg/mL (≈ 0.0572 µM) | 16 µg/mL (≈ 30.5 µM) |
